Values of other authors in US20160168446A1, “METHOD FOR PRODUCING MINERAL OIL FROM AN UNDERGROUND MINERAL OIL DEPOSIT USING A COMPOSITION (Z) COMPRISING A GLYCEROL-BORIC ACID COMPLEX” (priority 2013, published 2016).

Details: complex (I) and salts thereof

glycerol-boric acid complex [glycerol-boric acid complex (I)]
water solubility compared with boric acid or borax: much better water solubility
